{"source": "patent US20060078921A1", "about": "“Biomarkers and expression profiles for toxicology” (priority 2002, published 2006)", "key": {"[1]": {"system": "candidate marker genes (Table 4)", "assay": "RT-PCR of candidate marker genes to differentiate toxic and non-toxic 5-HT6 receptor antagonists (FIG. 10)", "type": "in vivo, Wistar rats", "conditions": "rat liver, some of the selected genes"}, "[2]": {"system": "CYP2B", "conditions": "liver"}}, "data": [{"substance": "(4-Amino-N-(6-bromo-1 H-indol-4-yl)-benzenesulfonamide [Ro65-7199]", "values": [{"measurement": "expression levels of selected marker genes (RT-PCR, FIG. 10)", "setting": "[1]", "value": "larger effect"}, {"measurement": "induction of CYP2B protein (Western blot)", "setting": "[2]; 6 hours after administration", "value": "could not be detected"}, {"measurement": "protein levels of CYP2B (Western blot)", "setting": "[2]; 24 hours and 7 days after treatment", "value": "closely paralleled the amounts of mRNA"}]}]}
